# Measurements taken from PubChem BioAssay AID1256 (The Scripps Research Institute Molecular Screening Center, 2008).
# By UniProt entry, the sequences of proteins in these tests, tags left out.
# UniProt P25929, whole entry, looked up: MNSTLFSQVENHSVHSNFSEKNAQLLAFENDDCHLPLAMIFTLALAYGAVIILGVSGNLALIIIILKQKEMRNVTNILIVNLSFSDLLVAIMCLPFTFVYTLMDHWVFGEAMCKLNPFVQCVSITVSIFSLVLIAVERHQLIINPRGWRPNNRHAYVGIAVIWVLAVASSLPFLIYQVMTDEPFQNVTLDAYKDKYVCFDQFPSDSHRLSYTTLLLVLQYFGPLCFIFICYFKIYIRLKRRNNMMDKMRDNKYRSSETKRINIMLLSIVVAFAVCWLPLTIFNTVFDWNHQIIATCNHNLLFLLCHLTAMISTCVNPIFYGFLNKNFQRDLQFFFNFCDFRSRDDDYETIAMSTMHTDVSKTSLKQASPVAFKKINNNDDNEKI
# Only a part is listed here, and it is no random draw. Calls of active or inactive are those of the source. Cut-off read from the data, not from the text of the source: active = inhibition above about 20%; inactive = the rest.
# Biological target: Neuropeptide Y receptor type 1 (Homo sapiens) (UniProt P25929)
# Experiment: blockade of human NPY-Y1 in cells – counter-screen for NPY-Y2 antagonist project (AID 1256);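 note: cells challenged with NPY then isoproterenol with cAMP sensed through a CNG channel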
# Conditions: cell-based NPY-Y1 antagonism counterscreen; at 3.6 µM; stronger effect = higher value
compound,measurement,value
CCc1nc2c(n1)c1c(non1O)c1c2no[n+]1[O-],inhibition,active: 22.7%
